Read-outs that look alike come from different tables or passages of the source.
Assays:
[1] = system: IRE-1α-mediated XBP-1 splicing in human myeloma MM.1s cells; assay: Cellular XBP-1 splicing assay in myeloma cells (RT-PCR); details: read-out: EC50_av, average EC50, endogenous XBP-1 splicing in myeloma cells, DTT stress
[2] = molecular target: human IRE-1α (GST-IRE-1α) (Homo sapiens (Human), UniProt O75460); assay: IRE-1α assay (cleavage of mini-XBP-1 mRNA stem-loop substrate); format: biochemical; details: read-out: IC50_av, average IC50 for inhibition of IRE-1α in vitro

Sequences of proteins named here, by UniProt entry; tags and fusion partners are left off. Residues count along the entry.
UniProt O75460, 19-977 limits assumed: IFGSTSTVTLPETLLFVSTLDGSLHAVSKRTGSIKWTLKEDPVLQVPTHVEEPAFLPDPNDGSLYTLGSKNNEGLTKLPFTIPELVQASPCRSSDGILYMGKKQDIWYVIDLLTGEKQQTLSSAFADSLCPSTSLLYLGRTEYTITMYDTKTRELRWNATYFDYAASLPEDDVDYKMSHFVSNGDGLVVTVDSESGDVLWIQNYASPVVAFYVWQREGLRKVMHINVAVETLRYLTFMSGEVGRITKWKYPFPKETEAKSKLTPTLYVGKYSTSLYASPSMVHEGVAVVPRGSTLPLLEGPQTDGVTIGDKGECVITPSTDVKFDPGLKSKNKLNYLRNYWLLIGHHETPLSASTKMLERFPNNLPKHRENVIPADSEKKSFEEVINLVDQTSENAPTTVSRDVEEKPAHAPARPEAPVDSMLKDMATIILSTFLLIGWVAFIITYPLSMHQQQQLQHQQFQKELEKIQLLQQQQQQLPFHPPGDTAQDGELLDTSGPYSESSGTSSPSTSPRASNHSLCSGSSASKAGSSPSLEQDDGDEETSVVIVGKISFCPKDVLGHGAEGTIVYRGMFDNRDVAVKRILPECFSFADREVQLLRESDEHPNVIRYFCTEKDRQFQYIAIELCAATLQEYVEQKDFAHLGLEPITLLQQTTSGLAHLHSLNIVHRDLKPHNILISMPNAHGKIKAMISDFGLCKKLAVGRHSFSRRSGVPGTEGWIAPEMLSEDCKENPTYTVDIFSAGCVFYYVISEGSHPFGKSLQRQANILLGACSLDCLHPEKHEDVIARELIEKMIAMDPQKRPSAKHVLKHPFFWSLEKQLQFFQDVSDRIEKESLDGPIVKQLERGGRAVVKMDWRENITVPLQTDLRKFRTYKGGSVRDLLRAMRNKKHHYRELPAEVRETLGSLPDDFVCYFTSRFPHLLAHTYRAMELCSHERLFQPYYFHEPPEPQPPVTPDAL

For `CN1CCN(CC(=O)NC2CCN(c3ccc4c(C=O)c(O)ccc4c3)C2)CC1` (stereo not shown), the EC50 [1] was over 10 µM.
`CN1CCC(NC(=O)COc2ccc3ccc(O)c(C=O)c3c2)CC1` gave an EC50 [1] of over 10 µM.
`O=Cc1c(O)ccc2ccc(-c3cncnc3)cc12` gave an IC50 [2] of under 1 µM and an EC50 [1] of 10 µM.
For `O=Cc1c(O)ccc2cc(-c3ccc(C(=O)N4CCOCC4)nc3)ccc12`, the IC50 [2] was under 1 µM and the EC50 [1] was under 10 µM.
`CN1CCN(c2ccc(-c3ccc4ccc(O)c(C=O)c4c3)cc2)CC1` gave an IC50 [2] of over 1 µM and an EC50 [1] of under 10 µM.
`O=Cc1c(O)ccc2cc(OCC(=O)N3CCOCC3)ccc12` showed an EC50 [1] of over 10 µM.
`O=Cc1c(O)ccc2cc(-c3ccc(C(=O)NC4CCCNC4)o3)ccc12` (stereo not shown) [Compound 171] gave an IC50 ([2]; tested form: HCl) of under 1 µM and an EC50 ([1]; tested form: HCl) of under 10 µM.
Work on `O=Cc1c(O)ccc2cc(-c3cc(C(=O)O)ccc3Cl)ccc12` yielded an IC50 [2] of under 0.1 µM.
In the case of `CN1CCN(C(=O)c2ccc(Oc3ccc4c(C=O)c(O)ccc4c3)cc2)CC1`, the EC50 [1] is reported as under 10 µM.
Work on `CN1CCN(C(=O)c2ccnc(-c3ccc4c(C=O)c(O)ccc4c3)c2)CC1` yielded an IC50 [2] of under 1 µM and an EC50 [1] of under 10 µM.
For `O=Cc1c(O)ccc2ccc(OCC(=O)N3CCOCC3)cc12`, the EC50 [1] was over 10 µM.
For `CN(C)CCNC(=O)COc1ccc2ccc(O)c(C=O)c2c1`, the EC50 [1] was over 10 µM.
`Cc1cc(C(=O)O)sc1-c1ccc2c(C=O)c(O)ccc2c1` was tested, and the IC50 [2] was 0.1 µM and the EC50 [1] was under 10 µM.
Work on `O=Cc1c(O)ccc2ccc(OCC(=O)NN3CCOCC3)cc12` yielded an EC50 [1] of over 10 µM.
`O=Cc1c(O)ccc2cc(-c3ccc(C(=O)O)cc3Cl)ccc12` gave an IC50 [2] of under 1 µM.
`CN1CCN(C(=O)COc2ccc3ccc(O)c(C=O)c3c2)CC1` was tested, and the EC50 [1] was over 10 µM.

From patent publication US9493435B2, “IRE-1α inhibitors” (MannKing Corporation, priority 2009, dated 2016)
